Measurements reported in patent US20260159520A1, “HETEROBIFUNCTIONAL COMPOUNDS AND METHODS OF TREATING DISEASE” (Halda Therapeutics OpCo, Inc., priority 2022, published 2026).

Chains of the proteins cited; added tags and fusions are not shown.
UniProt P50750, whole entry: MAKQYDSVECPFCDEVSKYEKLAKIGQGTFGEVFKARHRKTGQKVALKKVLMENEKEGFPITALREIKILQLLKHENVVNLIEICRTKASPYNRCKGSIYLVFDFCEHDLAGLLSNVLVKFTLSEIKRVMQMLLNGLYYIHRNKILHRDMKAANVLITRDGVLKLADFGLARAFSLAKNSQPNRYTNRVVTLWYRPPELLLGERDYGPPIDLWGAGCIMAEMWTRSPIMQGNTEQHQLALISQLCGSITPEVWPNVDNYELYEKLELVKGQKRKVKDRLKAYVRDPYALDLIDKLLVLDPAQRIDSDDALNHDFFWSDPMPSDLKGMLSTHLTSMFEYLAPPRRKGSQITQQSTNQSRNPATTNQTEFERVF

Tests used:
[1] = target: CDK9 (Homo sapiens, UniProt P50750); experiment: KdELECT binding assay, CDK9; conditions: CDK9, Table 7
Procedure: Compounds were tested using a KdELECT. Kinase-tagged T7 phage strains were prepared in an E. coli host derived from the BL21 strain. E. coli were grown to log-phase and infected with T7 phage and incubated with shaking at 32° C. until lysis. The lysates were centrifuged and filtered to remove cell debris. The remaining kinases were produced in BEK-293 cells and subsequently tagged with DNA for qPCR detection. Streptavidin-coated magnetic beads were treated with biotinylated small molecule ligands for 30 minutes at room temperature to generate affinity resins for kinase assays. The liganded beads were blocked with excess biotin and washed with blocking buffer (SeaBlock (Pierce), 1% BSA, 0.05% Tween 20, 1 mM DTT) to remove unbound ligand and to reduce non-specific binding. Binding reactions were assembled by combining kinases, liganded affinity beads, and test compounds in 1× binding buffer (20% SeaBlock, 0.17×PBS, 0.05% Tween 20, 6 mM DTT). Test compounds were prepared as 111× stocks in 100% DMSO. Kd values were determined using an 11-point 3-fold compound dilution series with three DMSO control points. All compounds for Kd measurements are distributed by acoustic transfer (non-contact dispensing) in 100% DMSO. The compounds were then diluted directly into the assays such that the final concentration of DMSO was 0.9%. […] The kinase concentration in the eluates was measured by qPCR.

[2] = tested on: T-Rex 293 cell line SC3 cells having increased expression of androgen receptor protein; experiment: Cellular growth inhibition, T-Rex 293 SC3 cells with doxycycline (increased androgen receptor expression); conditions: with 10 ng/mL doxycycline (increased androgen receptor), 72 hours, CellTiter-Glo 2.0
Procedure: (§1) The following types of cells were prepared for this experiment: (i) a T-Rex 293 cell line having increased expression of androgen receptor protein due to exposure to doxycycline and (ii) a T-Rex 293 cell line lacking increased expression of androgen receptor protein. Ability of the test compounds to inhibit proliferation of the foregoing cell types was evaluated according to the procedures set forth below.
(§2) The doxycycline-inducible androgen receptor protein expressing cell line was established using the following protocol: T-Rex 293 cells were purchased from Invitrogen (Cat #R71007) and transfected using Lipofectamine 2000 with the wild-type androgen receptor protein sequence cloned into the pcDNA4/TO vector. Transfected cells were selected using 400 μg/mL Zeocin (Invitrogen Cat #R25001). […] Clones were analyzed for expression of androgen receptor protein in the presence and absence of 10 ng/mL doxycycline (Sigma Cat #D9891), and a single doxycycline-inducible clone (hereinafter “SC3”) was selected for use in downstream assays. […]
(§3) At the end of the treatment duration, cell viability was quantified with CellTiter-Glo 2.0 reagent (Promega Cat #G9243). […] Following incubation, the plates were spun at 3000×g for 30 seconds, then sealed with an optical adhesive cover, and luminescence readings were measured with an EnVision Plate Reader.
(§4) Data was normalized using zero luminescence for baseline. […]

[3] = tested on: T-Rex 293 cell line SC3 cells lacking increased expression of androgen receptor protein; experiment: Cellular growth inhibition, T-Rex 293 SC3 cells without doxycycline; conditions: not exposed to doxycycline, 72 hours, CellTiter-Glo 2.0
Procedure: as §1, §2, §3, §4

[4] = tested on: VCaP cells; experiment: Cellular growth inhibition assay for VCaP cells; conditions: 72 hours, CellTiter-Glo 2.0
Procedure: VCaP cells were purchased from American Type Cell Culture (ATCC Cat #CRL2876) and then seeded on poly-D-lysine coated, black clear-bottom 384-well plates at 5000/well in 25 μL Dulbecco's Modified Eagle Medium (DMEM) supplemented with 10% w/w Fetal bovine serum (FBS) and 1% w/w Pen-Strep. Pen-Strep is a commercially available mixture of penicillin G and streptomycin, which is used in mammalian cell culture media to prevent bacterial contamination. Dulbecco's Modified Eagle Medium (DMEM) supplemented with 10% w/w fetal bovine serum (FBS) and 1% w/w Pen-Strep is herein referred to as Treatment Medium. Following seeding of cells in the plates, the plates were spun at 300×g for 30 seconds, then equilibrated to room temperature for 30 minutes, and then deposited in a humidified tissue culture incubator maintained at 37° C. with 5% CO2. […]
as §3, with “Reader. Data was normalized using zero luminescence for baseline. […]” for “Reader.”

[5] = tested on: T-Rex 293 cell line SC cells having increased expression of progesterone receptor isoform B protein; experiment: Cellular growth inhibition, T-Rex 293 SC cells with doxycycline (increased progesterone receptor isoform B expression); conditions: with 10 ng/mL doxycycline (increased progesterone receptor isoform B), 72 hours, CellTiter-Glo 2.0
Procedure: as §1, with “progesterone” for “androgen”, “receptor isoform B” for “receptor”
(§5) The doxycycline-inducible progesterone receptor isoform B protein expressing cell line was established using the following protocol: T-Rex 293 cells were purchased from Invitrogen (Cat #R71007) and transfected using Lipofectamine 2000 with the wild-type progesterone receptor B protein sequence cloned into the pcDNA4/TO vector. […] Clones were analyzed for expression of progesterone receptor isoform B protein in the presence and absence of 10 ng/mL doxycycline (Sigma Cat #D9891), and a single doxycycline-inducible clone (hereinafter “SC”) was selected for use in downstream assays. […]
as §3, with “Reader (Perkin Elmer).” for “Reader.”
as §4

[6] = tested on: T-Rex 293 cell line SC cells lacking increased expression of progesterone receptor isoform B protein; experiment: Cellular growth inhibition, T-Rex 293 SC cells without doxycycline; conditions: not exposed to doxycycline, 72 hours, CellTiter-Glo 2.0
Procedure: as §1, with “progesterone” for “androgen”, “receptor isoform B” for “receptor”
as §5
as §3, with “Reader (Perkin Elmer).” for “Reader.”
as §4

[7] = tested on: T47D cells; experiment: Cellular growth inhibition assay for T47D cells; conditions: 72 hours, CellTiter-Glo 2.0
Procedure: T47D cells were purchased from American Type Cell Culture (ATCC Cat #HTB-133) and then seeded on poly-D-lysine coated, black clear-bottom 384-well plates at 3000/well in 25 μL Dulbecco's Modified Eagle Medium (DMEM) supplemented with 10% w/w Fetal bovine serum (FBS), 0.2 units/mL recombinant human insulin (Gibco Cat #12585014), and 1% w/w Pen-Strep. Pen-Strep is a commercially available mixture of penicillin G and streptomycin, which is used in mammalian cell culture media to prevent bacterial contamination. Dulbecco's Modified Eagle Medium (DMEM) supplemented with 10% w/w fetal bovine serum (FBS), 0.2 units/mL recombinant human insulin, and 1% w/w Pen-Strep is herein referred to as Treatment Medium. Following seeding of cells in the plates, the plates were spun at 300×g for 30 seconds, then equilibrated to room temperature for 30 minutes, and then deposited in a humidified tissue culture incubator maintained at 37° C. with 5% CO2. […]
as §3, with “Reader (Perkin Elmer).” for “Reader.”
as §4

Kd [1]: 50 to 500 nM
GI50 [4]: 1000 to 3500 nM
GI50 [7]: 1500 to 3000 nM
SMILES: COc1cc(F)ccc1-c1ccnc2[nH]c(C3CCN(CCOC4CCN(c5ncc(C(=O)N[C@H]6C(C)(C)[C@H](Oc7ccc(C#N)c(Cl)c7)C6(C)C)cn5)CC4)CC3)cc12
GI50 [2]: 100 to 1000 nM
GI50 [3]: 1000 to 3500 nM
GI50 [5]: 500 to 1500 nM
GI50 [6]: 500 to 1500 nM
